Data: publication PMC11294477

Biological target: T1, Endogenous latrophilin-2 (LPHN2/ADGRL2), O95490
T1 chain: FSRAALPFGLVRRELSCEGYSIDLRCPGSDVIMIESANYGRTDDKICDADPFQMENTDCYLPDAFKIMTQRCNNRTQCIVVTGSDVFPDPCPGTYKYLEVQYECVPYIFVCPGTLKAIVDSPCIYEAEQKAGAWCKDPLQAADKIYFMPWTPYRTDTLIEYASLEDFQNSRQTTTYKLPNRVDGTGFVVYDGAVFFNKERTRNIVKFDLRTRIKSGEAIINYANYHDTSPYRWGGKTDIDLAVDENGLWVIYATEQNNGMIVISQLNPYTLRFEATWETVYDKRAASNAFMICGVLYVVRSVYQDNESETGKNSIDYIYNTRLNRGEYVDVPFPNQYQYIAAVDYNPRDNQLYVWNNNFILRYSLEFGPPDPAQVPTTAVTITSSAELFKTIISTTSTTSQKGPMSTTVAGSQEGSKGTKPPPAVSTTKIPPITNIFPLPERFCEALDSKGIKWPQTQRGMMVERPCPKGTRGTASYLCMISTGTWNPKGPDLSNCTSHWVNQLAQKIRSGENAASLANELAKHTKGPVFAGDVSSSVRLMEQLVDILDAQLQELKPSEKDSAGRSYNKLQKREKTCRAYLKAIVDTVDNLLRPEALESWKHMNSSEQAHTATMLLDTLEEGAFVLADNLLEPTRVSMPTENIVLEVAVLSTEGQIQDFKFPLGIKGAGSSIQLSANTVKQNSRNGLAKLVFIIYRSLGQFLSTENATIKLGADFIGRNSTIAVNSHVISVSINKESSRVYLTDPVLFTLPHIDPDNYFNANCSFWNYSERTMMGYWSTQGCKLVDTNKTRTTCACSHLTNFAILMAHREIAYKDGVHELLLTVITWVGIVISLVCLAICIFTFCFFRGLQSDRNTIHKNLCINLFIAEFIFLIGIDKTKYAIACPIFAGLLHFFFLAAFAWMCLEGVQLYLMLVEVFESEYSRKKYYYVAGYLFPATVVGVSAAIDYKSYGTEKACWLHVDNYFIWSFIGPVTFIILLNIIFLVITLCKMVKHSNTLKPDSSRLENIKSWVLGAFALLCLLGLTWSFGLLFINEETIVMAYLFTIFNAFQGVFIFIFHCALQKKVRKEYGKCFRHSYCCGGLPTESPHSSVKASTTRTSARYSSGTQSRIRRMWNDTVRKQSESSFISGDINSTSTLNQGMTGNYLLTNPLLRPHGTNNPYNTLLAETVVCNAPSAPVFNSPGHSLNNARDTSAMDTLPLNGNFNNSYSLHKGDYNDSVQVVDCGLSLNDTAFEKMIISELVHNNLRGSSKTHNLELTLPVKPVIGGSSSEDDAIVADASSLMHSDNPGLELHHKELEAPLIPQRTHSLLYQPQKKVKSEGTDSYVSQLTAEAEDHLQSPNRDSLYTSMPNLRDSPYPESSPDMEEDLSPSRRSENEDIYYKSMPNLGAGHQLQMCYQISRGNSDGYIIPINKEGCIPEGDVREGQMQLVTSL
Assay: co-immunoprecipitation (GFP-Trap, IB: LPHN2)
Settings: chain shown with the change, read off a plot

response (LPHN2 (normalized)) (Flow, FSS for 2 min): 1 | response (LPHN2 (normalized)) (Static): 0.45
B1: Wild-type Gi1 with internal GFP and four alanines inserted into helix α5 (ins4A), P63096 Q306K (protein)
chain: MGCTLSAEDKAAVERSKMIDRNLREDGEKAAREVKLLLLGAGESGKSTIVKQMKIIHEAGYSEEECKQYKAVVYSNTIQSIIAIIRAMGRLKIDFGDSARADDARQLFVLAGAAEEGFMTAELAGVIKRLWKDSGVQACFNRSREYQLNDSAAYYLNDLDRIAQPNYIPTQQDVLRTRVKTTGIVETHFTFKDLHFKMFDVGGQRSERKKWIHCFEGVTAIIFCVALSDYDLVLAEDEEMNRMHESMKLFDSICNNKWFTDTSIILFLNKKDLFEEKIKKSPLTICYPEYAGSNTYEEAAAYIQCKFEDLNKRKDTKEIYTHFTCATDTKNVQFVFDAVTDVIIKNNLKDCGLF
